For the assay, the target named is Protease activated receptor-1 (PAR1), endogenous on EA.hy.926 endothelial cells (human) (UniProt P25116). Nature of the assay: cell-based or functional assay.

As to “Thrombin (from UniProt P00734 328-622) (enzyme)”, the ERK1/2 phosphorylation in EA.hy.926 cells (immunoblot, ratio to total ERK1/2) stood at 3 fold.
